# scFv variants of Ab-14 (light chain) against a SARS-CoV-2 spike peptide

All variants were tested on one target, the spike HR2 peptide PDVDLGDISGINAS (SARS-CoV-2).

Ab-14 is the parent antibody, in scFv form: VH, then the linker GGGGSGGGGSGGGGS, then VL. The heavy chain is unchanged in all variants.
VH: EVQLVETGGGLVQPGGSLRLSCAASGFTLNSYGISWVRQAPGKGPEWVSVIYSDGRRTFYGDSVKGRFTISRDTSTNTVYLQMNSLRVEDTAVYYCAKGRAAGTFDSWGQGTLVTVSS
VL: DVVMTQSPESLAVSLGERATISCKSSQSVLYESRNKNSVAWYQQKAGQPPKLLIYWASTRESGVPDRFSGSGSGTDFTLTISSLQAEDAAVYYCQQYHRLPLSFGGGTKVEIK

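The parent was found by panning a naive human phage display library on the peptide. The library (AAYL50) carries one to three amino acid substitutions per variant, with no insertions or deletions. In AlphaSeq, yeast of one mating type display the scFv and yeast of the other type display the target. Pairs that bind mate more often; barcode pairs of the diploids are counted by sequencing. Scores were corrected for input abundance and mapped to Kd with protein pairs of known affinity run in the same pool. There are three technical replicates.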

Variants are written as CDR1, CDR2 and CDR3 of the light chain (limits as in the source). Parent: KSSQSVLYESRNKNSVA, WASTRES, QQYHRLPLS. All variants listed here change Y31 of the VL, counted from its first residue. Each Kd is an estimate from the mating assay, the geometric mean of the replicates in which the pair was seen; lower is stronger. A pair that was not seen in any replicate is written "nd"; this usually means weak binding, but a binder can also be missed.

- KSQQSVLLESRNKNSVA / WASTRES / QQYHGLPLS -> 5.1 nM (3 of 3 replicates; controls 2 of 9)
- KSSQSVLTESDNKNSAA / WASTRES / QQYHRLPLS -> 940 nM (3 of 3 replicates; controls 7 of 9)
- KSSQSVLKESRNKSSVA / MASTRES / QQYHRLPLS -> 97 nM (3 of 3 replicates; controls 0 of 9)
- KSSQSVLGESRNKNSSA / WASTRES / QQYHMLPLS -> 6.9 µM (1 of 3 replicates; controls 2 of 9)
- KSSQTVLRYSRNKNSVA / WASTRES / QQYHRLPLS -> nd (0 of 3 replicates; controls 0 of 9)
- KSSQSVLRESRNKCSFA / WASTRES / QQYHRLPLS -> 82 µM (2 of 3 replicates; controls 8 of 9)
- ASSQSVLNESRNKNSVF / WASTRES / QQYHRLPLS -> 21 µM (1 of 3 replicates; controls 4 of 9)
- KSSQSYLPESRNKNSVA / WASTRES / QQYHRLPLS -> 33 nM (3 of 3 replicates; controls 3 of 9)
- KSSQSVLCESRNKNSVA / WNSCRES / QQYHRLPLS -> 140 nM (3 of 3 replicates; controls 2 of 9)
- KSSQSVLWESRNKNSVA / WASTREH / QQDHRLPLS -> 86 nM (3 of 3 replicates; controls 2 of 9)
- KSSQSVLHDSRNKNSVA / AASTRES / QQYHRLPLS -> 18 µM (1 of 3 replicates; controls 2 of 9)
- KSSQSVENESRNPNSVA / WASTRES / QQYHRLPLS -> 30 nM (3 of 3 replicates; controls 8 of 9)
- KSSQSVLHESRNKNSVA / WARTRES / QQYHRLPVS -> 330 nM (3 of 3 replicates; controls 3 of 9)
- KSSQSVLTESRNKNSVA / WASTRES / QVYWRLPLS -> 5.7 nM (3 of 3 replicates; controls 3 of 9)
- KSSQSVLRESRNKHSVC / WASTRES / QQYHRLPLS -> 2.0 µM (1 of 3 replicates; controls 2 of 9)
- KSAQYVLAESRNKNSVA / WASTRES / QQYHRLPLS -> nd (0 of 3 replicates; controls 0 of 9)
- KSSQSVLGESRNKVSVG / WASTRES / QQYHRLPLS -> nd (0 of 3 replicates; controls 0 of 9)
- CSSQSVLAESRNKNSVA / WASTRES / QQYHRLPLS -> 130 nM (3 of 3 replicates; controls 2 of 9)
- KSSQSVLNESRNPNSVA / WASTRES / QQYHRLPLS -> 11 nM (3 of 3 replicates; controls 0 of 9)
- KSSQSVLMESRNKNSVN / WASTRCS / QQYHRLPLS -> 10 µM (1 of 3 replicates; controls 1 of 9)
- KSSQSVLSESRNKNSEA / WLSTRES / QQYHRLPLS -> nd (0 of 3 replicates; controls 3 of 9)
- KSSQSVLAESRNKDSVA / WASTRES / QQYHPLPLS -> 6.1 nM (3 of 3 replicates; controls 0 of 9)
- KSSQSVLGESYNKNHVA / WASTRES / QQYHRLPLS -> 6.6 nM (3 of 3 replicates; controls 4 of 9)
- YSSQSVLRESRNKNSVN / WASTRES / QQYHRLPLS -> nd (0 of 3 replicates; controls 0 of 9)
- KSSQSRLWESRNKNSVA / CASTRES / QQYHRLPLS -> 78 nM (3 of 3 replicates; controls 3 of 9)
- KSSQSVQVESRNKNSVA / WASTRES / QQYHRGPLS -> 8.0 nM (3 of 3 replicates; controls 4 of 9)
- KSSQSVLLESRNKNSVA / WPSTRES / QQYHRLPLP -> nd (0 of 3 replicates; controls 2 of 9)
- KSSQSVLKESRNKNSVA / WAMTRFS / QQYHRLPLS -> 820 nM (3 of 3 replicates; controls 4 of 9)
- KSSQSVLFESRNKYSVA / WASTREF / QQYHRLPLS -> nd (0 of 3 replicates; controls 0 of 9)
- KSSYSVLKESRNKNSVA / CASTRES / QQYHRLPLS -> 740 µM (1 of 3 replicates; controls 1 of 9)
- KSSQRVLLESRNKNSVA / WASTRES / QQYHRLPLS -> 12 nM (3 of 3 replicates; controls 2 of 9)
- KSSQSVLQESRNKNWVR / WASTRES / QQYHRLPLS -> 120 µM (2 of 3 replicates; controls 3 of 9)
- KSSQSVLEESDCKNSVA / WASTRES / QQYHRLPLS -> 11 nM (3 of 3 replicates; controls 4 of 9)
- VSSQSVLFESRNKNSVA / TASTRES / QQYHRLPLS -> 11 nM (3 of 3 replicates; controls 1 of 9)
- KSSQSVLMEQRNKNSVA / WASTRES / QQYHRLPLS -> 3.0 nM (3 of 3 replicates; controls 0 of 9)
- KSSQSVLDESRNKNSVA / WAFTRES / QIYHRLPLS -> 150 nM (3 of 3 replicates; controls 3 of 9)
- KSSQSVLIESRNKNSVA / LASTRES / QQYHRLPLN -> 850 nM (3 of 3 replicates; controls 2 of 9)
- KSSQSVLDESRNKNSVA / WASTRES / QQYHDLPLS -> 6.7 nM (3 of 3 replicates; controls 3 of 9)
- KSSQSVLDESRNKNSVA / WASTRES / QQYHRLPLS -> 1.5 nM (3 of 3 replicates; controls 2 of 9)
- KSSQSVLDESRNKFSVA / WASTRES / QQGHRLPLS -> nd (0 of 3 replicates; controls 3 of 9)
- KSSQSVLGESRNKNSWA / WASTRES / QQYHRWPLS -> nd (0 of 3 replicates; controls 0 of 9)
- KSSQSVLNESRNKNQVA / WASTRES / QQYHRLPLS -> 57 nM (3 of 3 replicates; controls 0 of 9)
- KSSQSVLDESNNKNSVA / WASYRES / QQYHRLPLS -> nd (0 of 3 replicates; controls 1 of 9)

Parent in this assay: reference entry 4.4 nM, copy in this library 48 nM. Nonspecific signal, from three strains lacking the peptide, appeared in 18% of pairings of library AAYL50, centred on 15 µM (5% of these signals below 970 nM); values are not corrected for it. Also given: how often the same scFv was detected with the empty control strains.

Source: Engelhart et al. 2022 (doi:10.1038/s41597-022-01779-4), MIT Lincoln Laboratory and A-Alpha Bio; data file from the FLAb repository.